## CycPeptMPDB entries from one study

Data: CycPeptMPDB; original report Kelly et al. 2021, doi:10.1021/jacs.0c06115.

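Conditions beyond the assay type are not listed; see the original paper. The list need not hold all peptides of the study. Entries at the database's floor value (log10 P of -10) are not listed.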

PAMPA is the parallel artificial membrane permeability assay, which has no cells and reads passive diffusion. P is given in units of 10^-6 cm/s (from log10 values with two decimals); larger means faster passage.

| PAMPA (10^-6 cm/s) | SMILES |
|---|---|
| 0.87 | CCC[C@H]1NC(=O)[C@H](Cc2ccc(OC)cc2)NC(=O)[C@@H](CC(C)C)NC(=O)[C@@H](NC(=O)[C@@H](CC(C)C)N(C)C(=O)[C@@H]2CCCN2C(C)=O)[C@@H](C)OC(=O)[C@@H]2CCCN2C(=O)[C@H](CC(C)C)NC(=O)[C@@H](C)N(C)C1=O |
| 1.8 | CCC[C@@H]1NC(=O)[C@@H](CC2CCCCC2)NC(=O)[C@@H](NC(=O)[C@@H](CC(C)C)N(C)C(=O)[C@@H]2CCCN2C(C)=O)[C@@H](C)OC(=O)[C@@H]2CCCN2C(=O)[C@H](CC(C)C)NC(=O)[C@@H](C)N(C)C(=O)[C@@H](Cc2ccc(F)c(F)c2)NC1=O |
| 1.5 | COc1ccc(C[C@@H]2NC(=O)[C@@H](Cc3ccccc3)NC(=O)[C@@H](NC(=O)[C@@H](CC(C)C)N(C)C(=O)[C@@H]3CCCN3C(C)=O)[C@@H](C)OC(=O)[C@@H]3CCCN3C(=O)[C@H](CC(C)C)NC(=O)[C@@H](C)N(C)C(=O)[C@@H](CC(C)C)NC2=O)cc1 |
| 0.14 | CC(=O)N1CCC[C@H]1C(=O)N(C)[C@H](CC(C)C)C(=O)N[C@@H]1C(=O)N[C@H](Cc2ccc(F)cc2)C(=O)N[C@@H](CCc2ccccc2)C(=O)N[C@H](Cc2cccc3ccccc23)C(=O)N(C)[C@H](C)C(=O)N[C@@H](CC(C)C)C(=O)N2CCC[C@H]2C(=O)O[C@@H]1C |
| 0.14 | COc1ccc(C[C@@H]2NC(=O)[C@@H](Cc3cccc4ccccc34)NC(=O)[C@@H](NC(=O)[C@@H](CC(C)C)N(C)C(=O)[C@@H]3CCCN3C(C)=O)[C@@H](C)OC(=O)[C@@H]3CCCN3C(=O)[C@H](CC(C)C)NC(=O)[C@@H](C)N(C)C(=O)[C@@H](Cc3ccc(F)cc3)NC2=O)cc1 |
| 2.1 | CC(=O)N1CCC[C@H]1C(=O)N[C@@H]1C(=O)N(C)[C@H](CC(C)C)C(=O)N[C@H](CC(C)C)C(=O)N(C)[C@H](CC(C)C)C(=O)N[C@@H](CC(C)C)C(=O)N[C@H](C)C(=O)N[C@@H](CC(C)C)C(=O)N2CCC[C@@H]2C(=O)O[C@@H]1C |
| 0.14 | CC[C@H]1NC(=O)[C@@H](NC(=O)[C@@H](CC(C)C)N(C)C(=O)[C@@H]2CCCN2C(C)=O)[C@@H](C)OC(=O)[C@@H]2CCCN2C(=O)[C@H](CC(C)C)NC(=O)[C@@H](C)N(C)C(=O)[C@@H](CC)NC(=O)[C@H](Cc2ccccc2)NC1=O |
| 2.8 | CC(=O)N1CCC[C@H]1C(=O)N(C)[C@H](CC(C)C)C(=O)N[C@@H]1C(=O)N[C@H](Cc2ccc(F)c(F)c2)C(=O)N[C@@H](CC(C)C)C(=O)N[C@H](Cc2ccc(F)c(F)c2)C(=O)N(C)[C@H](C)C(=O)N[C@@H](CC(C)C)C(=O)N2CCC[C@H]2C(=O)O[C@@H]1C |
| 1.3 | CC(=O)N[C@@H]1C(=O)N2CCC[C@H]2C(=O)N(C)[C@H](CC(C)C)C(=O)N(C)[C@@H](CC(C)C)C(=O)N[C@@H](CC(C)C)C(=O)N[C@H](CC(C)C)C(=O)N(C)[C@H](C)C(=O)N[C@@H](CC(C)C)C(=O)N2CCC[C@@H]2C(=O)O[C@@H]1C |
| 1.5 | CCC[C@H]1NC(=O)[C@@H](NC(=O)[C@@H](CC(C)C)N(C)C(=O)[C@@H]2CCCN2C(C)=O)[C@@H](C)OC(=O)[C@@H]2CCCN2C(=O)[C@H](CC(C)C)NC(=O)[C@@H](C)N(C)C(=O)[C@@H](CC2CCCCC2)NC(=O)[C@H](CCc2ccccc2)NC1=O |
| 1 | CC(=O)N[C@@H]1C(=O)N2CCC[C@H]2C(=O)N(C)[C@H](CC(C)C)C(=O)N(C)[C@@H](CC(C)C)C(=O)N[C@@H](CC(C)C)C(=O)N(C)[C@@H](CC(C)C)C(=O)N(C)[C@H](C)C(=O)N[C@@H](CC(C)C)C(=O)N2CCC[C@@H]2C(=O)O[C@@H]1C |
| 3.1 | CC(=O)N1CCC[C@H]1C(=O)N(C)[C@H](CC(C)C)C(=O)N[C@@H]1C(=O)N[C@H](Cc2ccccc2)C(=O)N[C@@H](CC(C)C)C(=O)N[C@H](Cc2ccc(F)c(F)c2)C(=O)N(C)[C@H](C)C(=O)N[C@@H](CC(C)C)C(=O)N2CCC[C@H]2C(=O)O[C@@H]1C |
| 1 | CC(=O)N1CCC[C@H]1C(=O)N(C)[C@H](CC(C)C)C(=O)N[C@@H]1C(=O)N[C@H](Cc2ccc(F)cc2)C(=O)N[C@@H](CCc2ccccc2)C(=O)N[C@H](Cc2ccc(F)c(F)c2)C(=O)N(C)[C@H](C)C(=O)N[C@@H](CC(C)C)C(=O)N2CCC[C@H]2C(=O)O[C@@H]1C |
| 0.32 | CC(=O)N[C@@H]1C(=O)N2CCC[C@H]2C(=O)N(C)[C@H](CC(C)C)C(=O)N[C@@H](CC(C)C)C(=O)N[C@@H](CC(C)C)C(=O)N(C)[C@H](CC(C)C)C(=O)N[C@@H](C)C(=O)N[C@@H](CC(C)C)C(=O)N2CCC[C@@H]2C(=O)O[C@@H]1C |

Extract of 2 entries:

| SMILES | PAMPA (10^-6 cm/s) |
|---|---|
| CC(=O)N[C@@H]1C(=O)N2CCC[C@H]2C(=O)N(C)[C@H](CC(C)C)C(=O)N[C@@H](CC(C)C)C(=O)N[C@@H](CC(C)C)C(=O)N(C)[C@H](CC(C)C)C(=O)N[C@@H](C)C(=O)N[C@@H](CC(C)C)C(=O)N2CCC[C@@H]2C(=O)O[C@@H]1C | 0.32 |
| CC(=O)N[C@@H]1C(=O)N2CCC[C@H]2C(=O)N(C)[C@H](CC(C)C)C(=O)N(C)[C@@H](CC(C)C)C(=O)N[C@@H](CC(C)C)C(=O)N(C)[C@@H](CC(C)C)C(=O)N(C)[C@H](C)C(=O)N[C@@H](CC(C)C)C(=O)N2CCC[C@@H]2C(=O)O[C@@H]1C | 1 |